From patent US20050276762A1, “Topical compositions containing 5'-adenosine-diphosphate ribose” (priority 2004, published 2005)
Some compounds may have been tested in ways that are not shown here.

By UniProt entry, the sequences of proteins in these tests, tags left out.
UniProt P09874, whole entry: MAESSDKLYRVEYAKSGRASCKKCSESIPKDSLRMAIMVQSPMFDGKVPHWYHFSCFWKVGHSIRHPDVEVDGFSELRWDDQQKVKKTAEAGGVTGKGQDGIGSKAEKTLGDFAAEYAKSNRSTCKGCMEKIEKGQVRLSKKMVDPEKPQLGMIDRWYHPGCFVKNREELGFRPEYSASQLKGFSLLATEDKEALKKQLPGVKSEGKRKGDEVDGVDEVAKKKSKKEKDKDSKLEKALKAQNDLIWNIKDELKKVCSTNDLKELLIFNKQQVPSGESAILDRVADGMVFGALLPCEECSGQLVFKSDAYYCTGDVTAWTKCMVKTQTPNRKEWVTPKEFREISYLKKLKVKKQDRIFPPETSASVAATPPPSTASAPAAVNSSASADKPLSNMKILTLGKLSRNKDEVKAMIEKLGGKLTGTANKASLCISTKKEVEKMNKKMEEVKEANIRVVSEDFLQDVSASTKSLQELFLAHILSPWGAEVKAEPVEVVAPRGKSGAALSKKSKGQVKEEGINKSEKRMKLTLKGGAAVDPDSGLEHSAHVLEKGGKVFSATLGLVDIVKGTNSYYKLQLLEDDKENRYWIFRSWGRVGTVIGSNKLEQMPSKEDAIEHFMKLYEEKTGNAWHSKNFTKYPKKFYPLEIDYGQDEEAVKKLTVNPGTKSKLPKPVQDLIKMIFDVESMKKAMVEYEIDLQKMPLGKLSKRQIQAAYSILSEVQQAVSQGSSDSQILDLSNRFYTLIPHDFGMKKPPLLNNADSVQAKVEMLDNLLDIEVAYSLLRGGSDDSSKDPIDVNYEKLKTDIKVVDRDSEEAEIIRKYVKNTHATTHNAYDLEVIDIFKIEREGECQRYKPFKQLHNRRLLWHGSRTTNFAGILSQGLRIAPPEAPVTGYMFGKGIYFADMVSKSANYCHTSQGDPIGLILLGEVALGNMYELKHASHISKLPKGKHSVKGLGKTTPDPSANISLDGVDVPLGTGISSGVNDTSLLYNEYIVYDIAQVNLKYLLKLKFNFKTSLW

What was measured:
[1] = biological target: poly (ADP-ribose) polymerase (PARP) (Homo sapiens, UniProt P09874); test: PARP assay (in vitro PARP inhibition); assay type: biochemical; details: concentration ranging from 4 to 10 mM; FIG. 2
Procedure: 1. […] 2. Cover the plate with an adhesive plate sealer and incubate for 2 hours at room temperature (or overnight at 2-8° C.). 1. […] After the last wash, remove any remaining PBS by decanting. Invert the plate and blot it against clean paper toweling. Note, at this time plates can be air dried and stored covered at room temperature for later use. 2. Block the wells by adding 50 μL of Strep Diluent to each well. 3. Cover the plate with an adhesive plate sealer and incubate for 1 hour at room temperature (or overnight at 2-8° C.). […] PARP will autoribosylate in the presence of NAD. 1. […] After the last wash, remove any remaining PBS by decanting. Invert the plate and blot it against clean paper toweling. 2. […] 3. Add inhibitor of interest. The final reaction volume is 50 μL/well. […] Enzyme is added last. • For 24 wells: Make for 20=2×0.5 units=10 units • 20 wells×5 μL=100 μL 10 μL enzyme+90 μl of 1× PARP buffer […] 5. Incubate the plate for 30 minutes at room temperature. The extent of ribosylation is time dependant; therefore this step can be extended if desired. 1. […] After the last wash, remove any remaining PBS by decanting. Invert the plate and blot it against clean paper toweling. 2. Dilute Strep-HRP • Dilute 1:500 • For 20 wells=1,100 μL Strep diluent+2.2 μL Strep-HRP • Add 50 μL of diluted Strep-HRP to each well. 3. Incubate for 30 minutes at 37° C. […]

[2] = tested on: human immortalized keratinocytes HaCaT cells; test: Protection of keratinocytes from UVA+UVB (solar simulator) exposure (adenylate kinase release); details: 100 μg/ml, FIG. 5
Procedure: (§1) In this third experiment, human immortalized keratinocytes HaCaT cells are assessed for the effect of ADP-ribose on UV-induced cell death and its probable mode of action. Here we report that ADP-ribose is able to protect skin cells from exposure to UVA, UVB, and their combination (sunlight).
(§2) The spontaneously immortalized human keratinocyte cell line HaCaT contains p53 mutation in both alleles. The cells are cultured in DMEM (Dulbeco's Minimal Essential Medium, Life Technologies) with 10% fetal bovine serum at 37° C. and 5% CO2. For irradiation, cells are cultured in 100 mm petri dishes to subconfluence (exponential growth), washed with 0.1% EDTA/PBS, and irradiated uncovered as a monolayer.
Treatment 3: 100 μg/ml ADP-R for exposures of 0, 150, 450, 600 and 900 J/m^2 Kodacel filtered solar simulator light measured with a UVB probe. Light source LS1000-8R-AM/LS1000 solar simulator (Solar Light Company) with a 1 kW xenon lamp. This simulator exposure also provides 450, 1350, 1800, and 2700 J/m^2 UVA, respectively.
(§3) Triplicate plates are harvested after 16 hours of incubation and supernatant pooled for adenylate kinase release activity.

Human A549 cells = test: H2O2 mediated cytotoxicity (cytoprotection assay, adenylate kinase release); details: 1 mM H2O2, FIG. 1
[3] = tested on: human immortalized keratinocytes HaCaT cells; test: Protection of keratinocytes from UVA exposure (adenylate kinase release); details: 100 μg/ml; UVA at 300 KJ/m^2; FIG. 4
Procedure: as §1, §2
Treatment 2: 100 μg/ml ADP-R for exposures of 0, 30, 100 and 300 KJ/m^2 Kodacel filtered UV-A measured with UVA probe. Lightsource Cosmolux UVA bulbs.
as §3

[4] = tested on: human immortalized keratinocytes HaCaT cells; test: Protection of keratinocytes from UVB exposure (adenylate kinase release); details: FIG. 3
Procedure: as §1, §2
Treatment 1: 100 μg/ml ADP-R for exposures of 0, 1, 2, and 4 KJ/m^2 Kodacel filtered UV-B measured with UVB probe. Light source Westinghouse FS-20 bulbs.
as §3

5′-adenosine diphosphate ribose
inhibition of PARP activity [1]: 40-80%
inhibition of cytotoxicity, UVA+UVB (solar radiation) ([2]; 600 J/m^2 UVB+1800 J/m^2 UVA): 60-70%
UVB exposure (solar simulator) up to which significant protection was observed ([2]; UVB, with 1800 J/m^2 UVA): ≤ 600 J/m^2
protection from H2O2 cytotoxicity (Human A549 cells; 50 μg/ml): 55-60%
cells protected from the cytotoxic effect of H2O2 (Human A549 cells; either 25 or 50 μg/ml): 30-55%
HaCaT cells protected from toxicity due to UVA exposure [3]: 25%
UVB exposure up to which keratinocytes are protected ([4]; 100 μg/ml): up to 2 KJ/m^2
protection of cells (inhibition of cytotoxicity induced by UVB exposure) ([4]; 100 ug/ml, UVB): 40-60%
